# Earlier results as cited in patent US20060136023A1 (priority 2004, published 2006).
# System: opiate receptor
smiles,measurement,value
CN1CC[C@]23c4c5ccc(O)c4O[C@H]2[C@@H](O)C=C[C@H]3[C@H]1C5 [morphine],"affinity for the opiate receptor, one enantiomer versus the other",(−) isomer of morphine has much greater affinity
